Legend:
[1] = target: T1, peroxisome proliferator-activated receptor beta/delta (sPPARD), wild-type (Sus scrofa, UniProt A9XAM2); test: biochemical
T1 construct: gene PPARD

Chains of the proteins cited; added tags and fusions are not shown. Residues count along the entry.
UniProt A9XAM2, 1-441: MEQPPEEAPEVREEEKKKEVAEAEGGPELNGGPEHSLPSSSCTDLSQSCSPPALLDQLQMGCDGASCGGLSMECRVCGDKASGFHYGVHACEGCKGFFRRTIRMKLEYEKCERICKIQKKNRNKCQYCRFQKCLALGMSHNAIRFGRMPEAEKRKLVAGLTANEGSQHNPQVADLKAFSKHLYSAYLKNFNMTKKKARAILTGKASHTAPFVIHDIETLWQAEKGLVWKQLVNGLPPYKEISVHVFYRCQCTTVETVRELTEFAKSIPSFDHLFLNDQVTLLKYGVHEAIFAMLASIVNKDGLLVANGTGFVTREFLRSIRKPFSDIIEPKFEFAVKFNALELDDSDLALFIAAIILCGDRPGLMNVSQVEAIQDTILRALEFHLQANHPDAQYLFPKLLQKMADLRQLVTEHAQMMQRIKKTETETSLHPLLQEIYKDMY
UniProt A9XAM2, 1-441 G32E: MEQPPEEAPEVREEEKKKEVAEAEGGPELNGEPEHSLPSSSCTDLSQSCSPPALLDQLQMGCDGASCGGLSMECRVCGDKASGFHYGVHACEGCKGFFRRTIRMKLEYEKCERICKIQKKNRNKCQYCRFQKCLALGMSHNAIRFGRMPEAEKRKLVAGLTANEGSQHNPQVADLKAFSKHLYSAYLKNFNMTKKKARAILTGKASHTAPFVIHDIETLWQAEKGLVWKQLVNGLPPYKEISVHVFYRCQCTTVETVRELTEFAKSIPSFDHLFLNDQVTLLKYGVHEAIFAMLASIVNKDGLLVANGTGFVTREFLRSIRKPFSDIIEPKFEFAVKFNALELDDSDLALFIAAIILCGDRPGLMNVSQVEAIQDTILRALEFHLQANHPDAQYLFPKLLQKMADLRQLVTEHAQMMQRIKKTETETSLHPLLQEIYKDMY

[2] = target: T2, peroxisome proliferator-activated receptor beta/delta (sPPARD), G32E mutant (Sus scrofa, UniProt A9XAM2, G32E); test: biochemical
T2 construct: gene PPARD

Cc1cc(SCc2sc(-c3ccc(C(F)(F)F)c(F)c3)nc2C)ccc1OCC(=O)O [GW0742]
Kd [1]: 44.9 nM
Kd [2]: 97.9 nM

— article PMC3776753, “The G32E Functional Variant Reduces Activity of PPARD by Nuclear Export and Post-Translational Modification in Pigs” (PLoS ONE, 2013)
